Compound activity: PubChem BioAssay, National Center for Advancing Translational Sciences (NCATS)
Hits are enriched below; roughly 2.3% of the tested compounds scored in any of these assays.
miR-21 reporter = miR-21 reporter, rising signal; HeLa miR-21 FLuc reporter, luciferase, 48 h; Potency, µM (titrated, usually from 38.3 µM), for the others: at the top dose reporter change, positive = more light; 340,000 tested, under 10 active; AID 2288; active = well fitted rising curve with a large enough effect; inconclusive = small, poorly fitted or top-dose-only effect; inactive = no such curve, though single readings can be large or run the other way;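 also: % of control where 0% means no effect; miR-21 action dims this reporter so a rising signal means less miR-21 action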
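Compounds were titrated across several concentrations (up to approximately 40 uM) and incubated 48 hours with HeLa miR-21-FLuc reporter cells (miR-21 target sequence downstream of FLuc, endogenous miR-21). Readout was firefly luciferase luminescence after lytic detection reagent.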
Nrf2 inh = inhibitors of Nrf2 signaling | 360,000 tested, 2.1% active | Potency, µM (highest dose often 46 µM), without a hit: top-dose activity change, negative = inhibition, most hits filed as inhibitors | A549 ARE-Fluc reporter, luciferase luminescence, 18-24 h | AID 504444; note: potency is the fitted concentration of half-maximal effect; % is set by controls: 0 for no effect and ±100 for the full control effect; nearly all actives have a fitted effect of over 60% in size
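A549 ARE_Fluc cells, 5000/well, 5% FBS OPTI-MEM; compounds in dose-response, 18-24 h at 37 °C/5% CO2; CellTiter-Fluor viability read (Ex 405/Em 525), then BugLite luciferase luminescence = Nrf2 activity.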
Nrf2 activator = Nrf2 pathway activation | AREc32 ARE-luciferase reporter (MCF7-derived line), luminescence, 24 h | Potency, µM (series often up to 46.1 µM), without a hit: at the highest dose activation, usual class: activators | 410,000 tested, 0.31% active | AID 624171; note: potency is the fitted concentration of half-maximal effect; % of control where 0% means no effect; nearly all actives have a fitted effect of over 65% in size
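Quantitative high-throughput format: AREc32 reporter cells, 1000 per well, received compound by pin transfer and were incubated 24 hr at 37 deg C, 5% CO2, before Steady-Glo luminescence detection.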
A549 tox-1 = counter-screen for Nrf2 inhibitors: cytotoxicity in A549 cells | A549 ARE-Fluc cells, CellTiter-Fluor viability, 18-24 h | Potency, µM (series often up to 46 µM), for inactives: top-dose activity change, negative = cytotoxicity, most hits filed as inhibitors | 390,000 tested, 0.16% active | AID 504648; note: potency is the fitted concentration of half-maximal effect; % is set by controls: 0 for no effect and ±100 for the full control effect
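A549 ARE-Fluc cells in 5% FBS OPTI-MEM, 5000 cells/well, rested 2 h then exposed to compounds in concentration-response for 18-24 h at 37 °C. Viability by CellTiter-Fluor fluorescence (Ex 405/Em 525) after 30 min; luciferase luminescence (BugLite, 15 min, RT) read afterwards.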
Mito fusion act = blocks mitochondrial division or promotes mitochondrial fusion; S. cerevisiae fusion-defective mutant growth rescue, CellTiterGlo 48 h; Potency, µM (titrated, usually from 46.1 µM), without a hit: at the highest dose growth rescue (activation), hits mostly activators; 320,000 tested, 0.23% active; AID 485298; note: potency is the fitted concentration of half-maximal effect; % of control where 0% means no effect; nearly all actives have a fitted effect of over 45% in size
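Yeast fusion mutant, YPEG (non-fermentable carbon), compound, 48 h at 37C non-permissive; CellTiterGlo added, 10 min RT, luminescence read. Rescued growth = division inhibition.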
FLuc counter 3 = counter-screen for Nrf2 inhibitors: firefly luciferase enzyme inhibition; shares compounds with Nrf2 inh; purified firefly luciferase, luminescence inhibition; Potency, µM (series often up to 57.5 µM), inactives show at the highest dose activity change, negative = inhibition, most hits filed as inhibitors; 1,400 tested, 4% active; AID 720522; note: potency is the fitted concentration of half-maximal effect; % is set by controls: 0 for no effect and ±100 for the full control effect; nearly all actives have a fitted effect of over 65% in size
A549 tox-2 = counter-screen for Nrf2 inhibitors: cytotoxicity in A549 ARE cells. shares compounds with Nrf2 inh. A549 ARE-Fluc cells, cytotoxicity counterscreen. Potency, µM (doses to about 46.1 µM), without a hit: top-dose activity change, negative = cytotoxicity, usual class: inhibitors. 1,400 tested, 2% active. AID 720523;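 note: potency is the fitted concentration of half-maximal effect; cells exposed to compounds for 18 to 24 hours; % is set by controls: 0 for no effect and ±100 for the full control effect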
ARE-Fluc inh = Nrf2 inhibition confirmed, A549 ARE-luciferase. 1,400 tested, 74% active. Potency, µM (top dose mostly 46.1 µM), inactives show at the highest dose activity change, negative = inhibition, actives largely listed as inhibitors. AID 720524. shares compounds with Nrf2 inh. A549 ARE-firefly luciferase reporter, luminescence; note: potency is the fitted concentration of half-maximal effect; % is set by controls: 0 for no effect and ±100 for the full control effect; nearly all actives have a fitted effect of over 65% in size
Active calls of the source: *. Unless noted, calls come from the whole dose curve; as a rule, active = well fitted curve in the direction sought with a large enough effect; inconclusive = small, poorly fitted or top-dose-only effect, or another doubt; inactive = no such curve, though single readings can be large; an effect the other way counts as inactive or inconclusive.

For COC(=O)C(Cc1c[nH]c2ccccc12)NC(=O)COc1ccc(Cl)cc1Cl (stereo unspecified) the results were miR-21 reporter -9%, Nrf2 inh 2%, Nrf2 activator 3% and A549 tox-1 12%.
Screening COc1ccccc1-c1noc(CCC(=O)N2CCN(c3cc(C)ccc3C)CC2)n1 returned Nrf2 inh 4.6µM*, Nrf2 activator 4%, A549 tox-1 inconclusive, FLuc counter 3 3%, A549 tox-2 0% and ARE-Fluc inh -25%.
For COc1ccc(-c2noc(CCCCC(=O)N3CCN(c4cc(C)ccc4C)CC3)n2)cc1 the results were Nrf2 inh 3.7µM*, Nrf2 activator -1%, A549 tox-1 -22%, FLuc counter 3 -21%, A549 tox-2 -9% and ARE-Fluc inh 7.3µM*.
Cc1ccc2ccc3cc(C(=O)Nc4ccc(C)c(F)c4)nc3c2[nH]1 was read as miR-21 reporter -4%, Nrf2 inh -19%, Nrf2 activator 0% and A549 tox-1 -25%.
Brc1ccc(C[n+]2ccccc2)cc1 was read as Nrf2 inh 2.6µM*, Nrf2 activator 0%, A549 tox-1 -7%, Mito fusion act 4%, FLuc counter 3 -1%, A549 tox-2 -7% and ARE-Fluc inh 4.1µM*.
For Brc1c(C[n+]2ccccc2)nc2ccccn12 the results were miR-21 reporter -2%, Nrf2 inh -25%, Nrf2 activator -1%, A549 tox-1 7% and Mito fusion act -2%.
CCOC(=O)c1ccc(NC(=O)c2oc(=O)c3ccccc3c2-c2ccccc2)cc1 was read as miR-21 reporter -1%, Nrf2 activator -1%, A549 tox-1 1% and Mito fusion act 0%.
Cc1cc(C)nc(SCC(=O)Nc2ccnc3ccccc23)n1 was read as miR-21 reporter 13%, Nrf2 inh 1.2µM*, Nrf2 activator 3%, A549 tox-1 inconclusive, Mito fusion act 2%, FLuc counter 3 -2%, A549 tox-2 -9% and ARE-Fluc inh -24%.
O=C(CSC1=NCCS1)Nc1ccnc2ccccc12 was read as miR-21 reporter 13%, Nrf2 inh 5.2µM*, Nrf2 activator 11%, A549 tox-1 -15%, Mito fusion act 0%, FLuc counter 3 -2%, A549 tox-2 -11% and ARE-Fluc inh 7.3µM*.
For Cc1ccc(N2CC(NC(=O)c3ccccc3C(F)(F)F)CC2=O)cc1C (stereo unspecified) the results were miR-21 reporter -6%, Nrf2 activator 2% and A549 tox-1 0%.
For C[C@]12C[C@H](O)[C@H]3[C@@H](CCC4=CC(=O)CC[C@@]43C)[C@@H]1CC[C@@H]2C(=O)CO the results were miR-21 reporter -20%, Nrf2 inh 0.41µM*, Nrf2 activator 3%, A549 tox-1 -8%, Mito fusion act -4%, FLuc counter 3 2%, A549 tox-2 -5% and ARE-Fluc inh 1.3µM*.
Screening CC(=O)[C@H]1CC[C@H]2[C@@H]3C[C@H](C)C4=CC(=O)CC[C@]4(C)[C@H]3[C@@H](O)C[C@]12C returned miR-21 reporter -20%, Nrf2 inh 0.058µM*, Nrf2 activator 0%, A549 tox-1 0%, Mito fusion act -4%, FLuc counter 3 0%, A549 tox-2 -4% and ARE-Fluc inh 0.15µM*.
`COCCCNC(=O)c1c(-c2ccccc2)c(-c2ccccc2)nn(C)c1=O` gave miR-21 reporter 4%, Nrf2 inh 20%, Nrf2 activator -1% and A549 tox-1 0%.
`COc1ccc(C2=Nn3c(nnc3-c3ccc(OC)c(OC)c3)SC2)c(OC)c1` gave Nrf2 inh inconclusive and A549 tox-1 -6%.
`Cc1cc(C(=O)COc2cccnc2[N+](=O)[O-])c(C)n1Cc1cccs1` gave miR-21 reporter -16%, Nrf2 inh inconclusive, Nrf2 activator 0%, A549 tox-1 -3% and Mito fusion act -3%.
`CC(=O)Nc1ccccc1OCC(=O)c1cc(C)n(Cc2cccs2)c1C` gave miR-21 reporter -15%, Nrf2 inh 0.41µM*, Nrf2 activator 3%, A549 tox-1 inconclusive, Mito fusion act 9%, FLuc counter 3 15µM*, A549 tox-2 -4% and ARE-Fluc inh -24%.
Screening N#Cc1ccc(OC(=O)c2cc(-c3ccc(Cl)cc3)on2)cc1 returned miR-21 reporter -7%, Nrf2 inh -7%, Nrf2 activator 4% and A549 tox-1 0%.
Screening CCOc1ccc(S(=O)(=O)Nc2cnc3ccccc3c2)cc1 returned miR-21 reporter 16%, Nrf2 inh 4.1µM*, Nrf2 activator 0%, A549 tox-1 -11%, Mito fusion act -1%, FLuc counter 3 0%, A549 tox-2 0% and ARE-Fluc inh 6.5µM*.
Screening CCOc1ccc(S(=O)(=O)Nc2nc3ccccc3nc2Cl)cc1 returned miR-21 reporter 14%, Nrf2 inh inconclusive, Nrf2 activator 2%, A549 tox-1 0% and Mito fusion act inconclusive.
For O=C(Nc1ccc(Br)cc1)c1cccc(S(=O)(=O)Nc2cnc3ccccc3c2)c1 the results were miR-21 reporter 15%, Nrf2 inh 2.9µM*, Nrf2 activator 10%, A549 tox-1 inconclusive, Mito fusion act 5%, FLuc counter 3 inconclusive, A549 tox-2 -14% and ARE-Fluc inh 18µM*.
Screening COCCNC(=O)C1CCCN(S(=O)(=O)c2ccc3c(ccn3C)c2)C1 (stereo unspecified) returned miR-21 reporter -2%, Nrf2 activator 0% and A549 tox-1 -2%.
Screening Cc1nnc2n(c1=O)C(CS(=O)(=O)c1ccccc1)CS2 (stereo unspecified) returned miR-21 reporter -1%, Nrf2 inh -3%, Nrf2 activator 0%, A549 tox-1 -1% and Mito fusion act 0%.

Ordered by molar mass (descending): some entries from above.
CCOC(=O)c1ccc(NC(=O)c2oc(=O)c3ccccc3c2-c2ccccc2)cc1 was read as miR-21 reporter -1%, Nrf2 activator -1%, A549 tox-1 1% and Mito fusion act 0%.
For Cc1ccc(N2CC(NC(=O)c3ccccc3C(F)(F)F)CC2=O)cc1C (stereo unspecified) the results were miR-21 reporter -6%, Nrf2 activator 2% and A549 tox-1 0%.
For Brc1c(C[n+]2ccccc2)nc2ccccn12 the results were miR-21 reporter -2%, Nrf2 inh -25%, Nrf2 activator -1%, A549 tox-1 7% and Mito fusion act -2%.
